Target: GluA2Qflip AMPA receptor subunit (Rattus norvegicus, UniProt P19491-2 P19491-2:22-883)
Test: inhibition; closed-channel state, 100 uM glutamate, whole-cell current, -60 mV, pH 7.4, 22 C
Details: tags: transiently expressed in HEK-293S cells; chain copies: 4 (inferred)

B1: AF44/AF42 pair (ssRNA)
RNA 1: GGGAGAAUUCAACUGCCACGGAUAAUAGCCAAUACUACAACCGU
RNA 2: GGGAACGGUGCCAGUCCGAAACGGAUCGUUAGAGCAUCAGUA
  Ki: 1500 nM
